Drawing on paper PMC4358366 (2014), this text covers Kd for one molecule.

As usually defined, the Kd is the equilibrium constant for the complex coming apart.

The assay concerns the target H3K27Cr peptide (UniProt P68431, crotonyl-lysine at 27). The assay can be described thus: ITC. In general terms: In ITC the heat of successive injections is recorded.

B1: recombinant human Sirt3 (102–399) (enzyme)
chain: ISFSVGASSVVGSGGSSDKGKLSLQDVAELIRARACQRVVVMVGAGISTPSGIPDFRSPGSGLYSNLQQYDLPYPEAIFELPFFFHNPKPFFTLAKELYPGNYKPNVTHYFLRLLHDKGLLLRLYTQNIDGLERVSGIPASKLVEAHGTFASATCTVCQRPFPGEDIRADVMADRVPRCPVCTGVVKPDIVFFGEPLPQRFLLHVVDFPMADLLLILGTSLEVEPFASLTEAVRSSVPRLLINRDLVGPLAWHPRSRDVAQLGDVVHGVESLVELLGWTEEMRDLVQRETGKLDGPDK
The molecule B1 returned a dissociation constant (Kd) of 157 µM.
